Measurements from ChEMBL document CHEMBL1132600, “Substrate specificity and stereoselectivity of rat brain microsomal anandamide amidohydrolase” (J Med Chem, 1999).
pKi: −log10 of the molar value.

Protein sequences, listed by entry. Tags and fused reporters are not part of them.
UniProt P20272, whole entry: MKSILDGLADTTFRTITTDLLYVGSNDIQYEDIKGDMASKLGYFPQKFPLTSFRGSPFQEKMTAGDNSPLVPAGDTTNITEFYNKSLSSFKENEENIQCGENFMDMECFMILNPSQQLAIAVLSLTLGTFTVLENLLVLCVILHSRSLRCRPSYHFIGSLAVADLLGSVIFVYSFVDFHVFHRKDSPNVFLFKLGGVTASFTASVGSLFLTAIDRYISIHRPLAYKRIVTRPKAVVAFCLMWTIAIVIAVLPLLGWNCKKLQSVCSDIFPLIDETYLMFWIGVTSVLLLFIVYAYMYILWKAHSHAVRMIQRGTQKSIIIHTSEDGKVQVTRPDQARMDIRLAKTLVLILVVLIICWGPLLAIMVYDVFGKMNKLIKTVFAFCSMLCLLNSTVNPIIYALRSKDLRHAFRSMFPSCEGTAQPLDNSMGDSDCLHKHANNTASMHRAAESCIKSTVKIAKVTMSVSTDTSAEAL

Target: Cannabinoid receptor 1 (Rattus norvegicus, UniProt P20272)
Assay: Tested for binding affinity to Cannabinoid receptor 1

| SMILES | pKi |
| --- | --- |
| CCCCC/C=C\C/C=C\CCCCCCCC(=O)NCCO [LINOLEOYLETHANOLAMIDE] | < 5.00 |
| CCCCC/C=C\C/C=C\C/C=C\C/C=C\CCCC(=O)N[C@@H](C)CO | 6.76 |
